Assay results reported in patent publication US12163953B2, “P-phenylene ethynylene compounds as bioactive and detection agents” (STC.UNM, priority 2014, dated 2024).
Where two headings read alike, the source gives them in different places.

Sequences of proteins named here, by UniProt entry; tags and fusion partners are left off. Residues count along the entry.
UniProt P00698, 19-147 limits assumed: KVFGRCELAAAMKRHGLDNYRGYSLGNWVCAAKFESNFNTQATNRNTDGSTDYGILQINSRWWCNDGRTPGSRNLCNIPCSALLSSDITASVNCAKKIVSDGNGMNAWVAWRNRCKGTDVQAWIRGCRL

Experiments:
HEWL amyloids = HEWL amyloids (Gallus gallus, UniProt P00698); experiment: Excitation and emission spectra of PEs with HEWL amyloids; type: binding, hen; conditions: PE 500 nM, HEWL amyloid 5 μM monomer basis
Description: Excitation and emission spectra of PEs in phosphate buffer alone, with monomeric HEWL and with HEWL amyloids (8 h incubated) are shown in FIGS. 18A-H, and relevant photophysical properties are summarized in Table 1. FIGS. 18A-H illustrate excitation (A, B, C, D) and emission (right; E, F, G. H) spectra of PEs (A, E: PE1+; B, F: PE1−; C, G: PE2+; D, H: PE3+) in phosphate buffer (PB, pH 7.4, 10 mM) alone (long dashed line) with HEWL monomers (short dashed line) and with HEWL amyloids (solid line); PE concentration: 500 nM, protein concentration: 5 μM monomer basis/0.25 mg/mL; emission and excitation wavelengths, respectively, were chosen as shown in Table 1 for each sample. A 10:1 molar ratio of protein to PE was used for these experiments. Absorbance spectra were taken, but background light scattering from insoluble amyloid aggregates made them difficult to interpret, so “fluorescence detected absorbance” in the form of excitation spectra was used instead. Normalized excitation and emission spectra, in which peak shifts and lineshape changes of spectra were somewhat easier to visualize, were used. […] PE1+ (FIG. 18E) had no change in wavelength or lineshape of emission spectrum, just a large increase in intensity when mixed with amyloids. The excitation spectra (FIGS. 18A, B, C, D) show a notable bathochromic shift for each PE in solution mixed with amyloid, of 23, 27, 35 and 29 nm for PE1+, PE2+, PE3+ and PE1−, respectively, observing only the low-energy band. The high-energy band, less relevant for imaging purposes, was also bathochromically shifted. […] PE1− had similar excitation spectrum (FIG. 18B) with monomer and amyloid, except for a large intensity difference.
Lyophilized HEWL was dissolved at 10 mg/mL in 10 mM pH 3 sodium citrate buffer with 0.1 M NaCl. The solution was incubated in a 70C oil bath and magnetically stirred at 250 rpm for 12 h, and aliquots were withdrawn at half-hour intervals. […] Half of each aliquot was immediately diluted into pH 7.4 phosphate buffer to prevent further influence of acidic conditions and stored at 4C.
For studies of fluorescence enhancement vs. protein incubation time, dyes were mixed with protein sample in phosphate buffer (10 mM, pH 7.4) at equal monomer concentration of 10 μM in the wells of a standard 96-well plate. Emission spectra were obtained using top read with a SpectraMax M2e plate-reading spectrophotometer (Molecular Devices, Sunnyvale, CA). Experiments were performed in duplicate and errors are reported as standard deviation. For analysis of bound PE excitation and emission spectra and protein-PE energy transfer, PEs (500 nM) were mixed with protein sample (5 μM, monomer basis) in phosphate buffer and the solution transferred to a quartz, fluorometry cuvette. […]

[1] = molecular target: HEWL fibrils incubated for different lengths of time (Gallus gallus, UniProt P00698); experiment: Fluorescence enhancement of dyes versus HEWL incubation time; type: binding, hen; conditions: dye 10 μM, HEWL 10 μM monomer basis
Description: Hen egg white lysozyme (HEWL) was used to form fibrillary amyloid aggregates for use in this study. […] For these experiments. HEWL (Sigma-Aldrich) was incubated at 70′C and a concentration of 350 μM in pH 3 sodium citrate buffer (10 mM) with 100 mM NaCl.
A plot of normalized fluorescence enhancement for all four PEs and Thioflavin T with HEWL fibrils incubated for different lengths of time is shown in FIG. 15. PE1+ and PE2+ track amyloid formation in roughly the same way as ThT, showing a sigmoidal curve with onset of a logarithmic growth phase occurring at the same time, around 1 hour of incubation. The plateau phase, as monitored by fluorescence of any of those three PEs or ThT, appeared at 2 hours incubation. […] PE1− has greater fluorescence enhancement when mixed with monomeric species than with amyloid at the equimolar concentrations used for this assay.
For studies of fluorescence enhancement vs. protein incubation time, dyes were mixed with protein sample in phosphate buffer (10 mM, pH 7.4) at equal monomer concentration of 10 μM in the wells of a standard 96-well plate. Emission spectra were obtained using top read with a SpectraMax M2e plate-reading spectrophotometer (Molecular Devices, Sunnyvale, CA). Experiments were performed in duplicate and errors are reported as standard deviation. […]

HEWL amyloid = HEWL amyloid (Gallus gallus, UniProt P00698); experiment: Binding saturation assay of PEs to HEWL amyloid (Hill fit); parameters: species or system hen
Description: Next, binding saturation assays were conducted to quantify the affinity of PE-amyloid binding; data and fitted curves were produced and the fitted parameters are summarized in the last two columns of Table 1. Since the linear fibril binding sites could fit many PEs, fits to binding curves were performed to the Hill equation to capture possible binding cooperativity:
[formula] where x is PE concentration (with protein concentration fixed), y is PE fluorescence intensity. […] Fits to the data for the three cationic PEs produced Fmax values close to the observed saturation value, and the other two parameters are reported as calculated. […] Furthermore, the cooperativity of PE binding increased from almost no cooperativity for PE1+, to some positive cooperativity for PE2+, to still more positive cooperativity for PE3+. The quantitative physical meaning of the Hill parameter is not quite clear except in special cases, but in a general way it is possible to conclude that for the cationic PEs, the shortest PE has non-cooperative binding to HEWL amyloid (Michaelis-Menten binding), and the two longer PEs have increasingly positively cooperative binding. […] The effect of PE1− non-specific binding to HEWL monomers precluded accurate determination of a binding constant for PE1−/amyloid interactions such that a quantitative comparison of binding between the cationic and anionic compounds could not be made.
For determination of binding constant of PEs to amyloid aggregates, PEs were mixed with HEWL amyloid in phosphate buffer at a final concentration of 100 nM-5 μM for PEs and 5 μM (monomer basis) for protein. The solutions were then transferred to a quartz fluorometry cuvette and emission measured at the pertinent wavelength. […] Hill function fits to PE binding curves were calculated in OriginPro 9.

[2] = Photophysical properties of PEs alone (excitation/emission spectra, fluorescence yield); type: physicochemical
Description: Excitation and emission spectra of PEs in phosphate buffer alone, with monomeric HEWL and with HEWL amyloids (8 h incubated) are shown in FIGS. 18A-H, and relevant photophysical properties are summarized in Table 1. FIGS. 18A-H illustrate excitation (A, B, C, D) and emission (right; E, F, G. H) spectra of PEs (A, E: PE1+; B, F: PE1−; C, G: PE2+; D, H: […]) alone (long dashed line) with HEWL monomers (short dashed line) and with HEWL amyloids (solid line); PE concentration: 500 nM, protein concentration: 5 μM monomer basis/0.25 mg/mL; emission and excitation wavelengths, respectively, were chosen as shown in Table 1 for each sample. A 10:1 molar ratio of protein to PE was used for these experiments. Absorbance spectra were taken, but background light scattering from insoluble amyloid aggregates made them difficult to interpret, so “fluorescence detected absorbance” in the form of excitation spectra was used instead. Normalized excitation and emission spectra, in which peak shifts and lineshape changes of spectra were somewhat easier to visualize, were used. […] PE1+ (FIG. 18E) had no change in wavelength or lineshape of emission spectrum, just a large increase in intensity when mixed with amyloids. The excitation spectra (FIGS. 18A, B, C, D) show a notable bathochromic shift for each PE in solution mixed with amyloid, of 23, 27, 35 and 29 nm for PE1+, PE2+, PE3+ and PE1−, respectively, observing only the low-energy band. The high-energy band, less relevant for imaging purposes, was also bathochromically shifted. […] PE1− had similar excitation spectrum (FIG. 18B) with monomer and amyloid, except for a large intensity difference.
For studies of fluorescence enhancement vs. protein incubation time, dyes were mixed with protein sample in phosphate buffer (10 mM, pH 7.4) at equal monomer concentration of 10 μM in the wells of a standard 96-well plate. Emission spectra were obtained using top read with a SpectraMax M2e plate-reading spectrophotometer (Molecular Devices, Sunnyvale, CA). Experiments were performed in duplicate and errors are reported as standard deviation. For analysis of bound PE excitation and emission spectra and protein-PE energy transfer, PEs (500 nM) were mixed with protein sample (5 μM, monomer basis) in phosphate buffer and the solution transferred to a quartz, fluorometry cuvette. Spectra were obtained on a PTI QuantaMaster 40 steady state spectrofluorometer (HORIBA Scientific, Edison, NJ).

HEWL amyloid fibrils = HEWL amyloid fibrils (Gallus gallus, UniProt P00698); experiment: Induced circular dichroism of PE-amyloid complexes; type: binding, hen; conditions: PEs 10 μM, HEWL 10 μM monomer basis
Description: Circular dichroism measurements were performed to determine if the intrinsic chirality of the HEWL fibrils was transferred to the PE chromophore by a chiral backbone twist or an “excitonic” chiral supramolecular aggregate. CD spectroscopy (CPEs in PB with HEWL monomer and with HEWL amyloid; performed for (a): PE1+; (b): PE1−; (c): PE2+; (d): PE3+; PEs 10 μM, HEWL 10 μM monomer basis/0.5 mg/mL) indicated induced circular dichroism of PEs when bound to HEWL amyloids. As expected, no PE had optical activity by itself in phosphate buffer solution and none of the PEs had any CD with HEWL monomer, including PE1−. […] PE1−, PE2+ and PE3+ all had strong induced CD with a negative Cotton effect when bound to HEWL amyloid fibrils. PE2+ and PE3+ gave rise to similar CD spectra, with more intense bands in the spectrum for PE3+.
PEs and protein samples were diluted in phosphate buffer, gently vortexed, and read in a 1 mm pathlength quartz CD cuvette using an Aviv 410 CD spectrometer (Aviv Biomedical, Lakewood, NJ), 15 s averaging time. A blank spectrum (PB only) was subtracted from each sample to remove background activity. Error bars are standard deviation over multiple reads of a single sample as reported by the instrument.

[3] = phosphate buffer pH 7.4, 10 mM, PE 500 nM

**Q.** What does the source list for `CCOC(=O)c1ccc(C#Cc2cc(OCC[N+](C)(C)C)c(C#Cc3ccc(C(=O)OCC)cc3)cc2OCC[N+](C)(C)C)cc1`?
**A.** bathochromic shift of excitation spectrum, low-energy band, with amyloid (HEWL amyloids): 23 nm; λem (PB w/ HEWL) (HEWL amyloids; PB): 454 nm; λex (PB w/HEWL), high-energy band (HEWL amyloids; PB): 332 nm; λex (PB w/HEWL), low-energy band (HEWL amyloids; PB): 385 nm; HEWL incubation time at which the plateau phase of fluorescence enhancement appears [1]: 2 h; Hill coeffi. (HEWL amyloid; PE binding to HEWL amyloid): 1.04; Kd (HEWL amyloid; read-out: Kd (apparent binding constant to HEWL amyloid), PE 100 nM-5 μM, protein 5 μM monomer basis, PB): 2630 nM; Kd (HEWL amyloid; read-out: calculated dissociation constant, HEWL amyloid, Hill fit): 2600 nM; λem (H2O) ([2]; H2O): 454 nm; φfl (H2O) ([2]; H2O): 0.023; φfl (MeOH) ([2]; MeOH): 0.75; λem (PB) ([2]; phosphate buffer): 454 nm; λex (PB), high-energy band [2, 3]: 314 nm; λex (PB), low-energy band [2, 3]: 362 nm; induced circular dichroism with HEWL amyloid (HEWL amyloid fibrils): did not have optical activity
